The source made the active and inactive calls. The rule behind the calls is not given here.
Tests used:
[1] = target: T1, Protein ENL (Homo sapiens) (UniProt Q03111); conditions: dose 333.0 nM, time 45.0 min
T1 sequence (whole entry): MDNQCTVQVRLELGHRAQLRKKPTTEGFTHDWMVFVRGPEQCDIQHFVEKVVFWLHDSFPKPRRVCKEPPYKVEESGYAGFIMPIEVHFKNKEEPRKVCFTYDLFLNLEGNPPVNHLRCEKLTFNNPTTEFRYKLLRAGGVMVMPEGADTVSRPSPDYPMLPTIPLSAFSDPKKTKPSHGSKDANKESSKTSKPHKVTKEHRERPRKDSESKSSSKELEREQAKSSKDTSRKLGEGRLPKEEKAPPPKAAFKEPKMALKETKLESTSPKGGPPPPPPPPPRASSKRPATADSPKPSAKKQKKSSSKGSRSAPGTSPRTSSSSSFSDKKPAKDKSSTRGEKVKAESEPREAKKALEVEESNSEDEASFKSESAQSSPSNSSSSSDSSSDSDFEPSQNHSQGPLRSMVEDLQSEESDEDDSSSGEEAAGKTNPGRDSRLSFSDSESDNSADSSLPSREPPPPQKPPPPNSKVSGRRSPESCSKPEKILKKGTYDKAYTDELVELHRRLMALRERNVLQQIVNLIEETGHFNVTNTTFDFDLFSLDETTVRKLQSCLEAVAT

[2] = target: T1, Protein ENL (Homo sapiens); conditions: dose 111.0 nM, time 45.0 min

Compound	inhibition [1]	inhibition [2]
C[C@H]1CCCN1Cc1nc2cc(NC(=O)c3ccc4c(cnn4CCNC(=O)OC(C)(C)C)c3)ccc2[nH]1	82.4%	inactive
C[C@H]1CCCN1Cc1nc2cc(NC(=O)c3cccc4c3c3ccccc3c(=O)n4C)ccc2[nH]1	39.9%	inactive
C[C@H]1CCCN1Cc1nc2cc(NC(=O)c3ccc4c(c3)[nH]c3ccccc34)ccc2[nH]1	98.2%	48.9%
C[C@H]1CCCN1Cc1nc2cc(NC(=O)c3ccc4[nH]c(=O)c5ccc(F)cc5c4c3)ccc2[nH]1	55.4%	22.4%
Cc1noc(C)c1-c1ccc(C(=O)Nc2ccc3[nH]c(CN4CCC[C@@H]4C)nc3c2)cc1	77.7%	12.8%
C[C@H]1CCCN1Cc1nc2cc(NC(=O)c3ccc4c(cnn4CCNC(=O)Nc4ccc(C(C)(C)C)cc4)c3)ccc2[nH]1	78.9%	33.8%
C[C@H]1CCCN1Cc1nc2cc(NC(=O)c3ccc4c(cnn4C4CCCC4)c3)ccc2[nH]1	40.6%	inactive
C[C@H]1CCCN1Cc1nc2cc(NC(=O)c3ccc4c(cnn4CCN4C5COC(c6ccccc6)OC5C5OC(c6ccccc6)OCC54)c3)ccc2[nH]1 (stereo partly specified)	inactive	14.6%
